Laboratory results taken from publication PMC6902473 (Clinical Epigenetics, 2019).

Conditions: human, in vivo, po
Description: The assays were validated according to the common FDA and EMA guidelines on bioanalytical method validation.

SMILES: O=C(CCCCCCC(=O)Nc1ccccc1)NO [vorinostat]
- t1/2, 25% Percentile: 1.05 h
